Consider four compounds from ChEMBL document CHEMBL1148652, “Design of potent, orally available antagonists of the transient receptor potential vanilloid 1. Structure-activity relationships of 2-piperazin-1-yl-1H-benzimidazoles” (J Med Chem, 2006).

Amino acid sequences for entries named in this document (tags omitted).
UniProt O35433, whole entry: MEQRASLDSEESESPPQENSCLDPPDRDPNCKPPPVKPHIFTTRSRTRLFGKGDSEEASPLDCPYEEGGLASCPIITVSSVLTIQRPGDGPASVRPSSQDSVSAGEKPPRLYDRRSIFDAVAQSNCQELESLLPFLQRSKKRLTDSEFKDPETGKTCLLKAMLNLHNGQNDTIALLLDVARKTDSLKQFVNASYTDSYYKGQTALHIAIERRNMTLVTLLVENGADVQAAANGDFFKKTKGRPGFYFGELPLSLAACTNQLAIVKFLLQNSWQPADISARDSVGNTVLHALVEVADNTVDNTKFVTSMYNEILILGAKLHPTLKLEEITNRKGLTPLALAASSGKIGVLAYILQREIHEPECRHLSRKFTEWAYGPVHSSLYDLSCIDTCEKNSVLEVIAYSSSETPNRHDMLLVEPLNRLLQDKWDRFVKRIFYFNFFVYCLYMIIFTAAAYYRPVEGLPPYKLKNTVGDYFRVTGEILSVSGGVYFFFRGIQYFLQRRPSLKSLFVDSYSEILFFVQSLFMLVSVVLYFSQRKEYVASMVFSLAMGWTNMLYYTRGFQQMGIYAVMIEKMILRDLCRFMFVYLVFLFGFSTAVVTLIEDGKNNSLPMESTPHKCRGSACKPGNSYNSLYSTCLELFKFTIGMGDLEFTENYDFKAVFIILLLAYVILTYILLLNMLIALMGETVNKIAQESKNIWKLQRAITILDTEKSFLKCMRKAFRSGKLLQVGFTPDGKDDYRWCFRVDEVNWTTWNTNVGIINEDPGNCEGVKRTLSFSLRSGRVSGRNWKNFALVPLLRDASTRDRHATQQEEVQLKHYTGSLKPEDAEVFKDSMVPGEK

Assay [1] has as its target T1, Transient receptor potential cation channel subfamily V member 1 (Rattus norvegicus, UniProt O35433). Description: Antagonist activity against acid-induced 45calcium ion uptake in CHO cells expressing rat TRPV1 at pH5. It counts as functional, cell-based. Summed up: (§1)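 CHO cells recombinantly expressing rat TRPV1; inhibition of 45Ca2+ uptake triggered by capsaicin or by acid, pH 5. Functional IC50 in nM, averaged over at least two independent experiments, each with three replicates per concentration.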

In assay [2] the target is T1, Transient receptor potential cation channel subfamily V member 1. In words: Antagonist activity against capsaicin-induced 45calcium ion uptake in CHO cells expressing rat TRPV1. It counts as functional, cell-based. In a few lines:
as §1

With `FC(F)(F)c1ccc2[nH]c(N3CCN(c4ccccn4)CC3)nc2c1`, the half-inhibitory concentration (IC50) (in general, the concentration that inhibits the measured activity by half) in assay [1] is more than 40000 nM; in assay [2], 5790 nM. The like results for `CCOC(=O)c1cccnc1N1CCN(c2nc3ccc(C(F)(F)F)cc3[nH]2)CC1` were, in that order, more than 40000 nM and 23800 nM. With `CC(C)(C)c1ccc(-c2cc(C(F)(F)F)cc3[nH]c(N4CCN(c5ncccc5C(F)(F)F)CC4)nc23)cc1`, in assay [2], the IC50 is 13 nM. With `CC(C)(C)c1ccc(NC(=O)N2CCN(c3ncccc3Cl)CC2)cc1`, the results for the concentration for half-maximal inhibition (IC50) in assay [1] and in assay [2] were 0.5 nM and 0.4 nM, respectively.
